The subject of data set [1] is CSC221 cells. Put plainly: MTT cell viability, CSC221. The format is cell-based, human. Conditions: CSC221, MTT assay. The protocol:
Cells (3 × 10^3 cells/well) were seeded on a 96‐well plate, grown overnight, and then treated with compounds at indicated concentrations for 48 h. After incubation with MTT for 4 h at 37°C, cells were lysed with 150 µL of DMSO (Sigma–Aldrich, St. Louis, USA). Absorbance was measured at 570 nm on a microplate reader with the Gen5 software (v.2.03.1; BioTek, Winooski, VT, USA).
On the technique in general: Tetrazolium assays rely on reduction of a dye to a coloured formazan, in cell work by metabolically active cells.

Data set [2] concerns CSC221 cells. Put plainly: Spheroid formation assay, CSC221. The format is cell-based, human. Conditions: CSC221, 10, 25, and 50 µg/mL, 2 weeks. The method, then: Monolayer cells were separated into single‐cell suspensions at around 70% confluence using a solution of trypsin. After that, the cells were added to N2‐supplemented DMEM/F12 that contained human basal fibroblast growth factor and human recombinant epidermal growth factor. Cells seeded at a density of 5 × 10^3 cells/well in ultra‐low attachment 24‐well plates (Corning Inc., Corning, NY, USA). After 10–14 days of culture, spheres were quantitated by inverted phase contrast microscopy. The relative sphere formation ability was calculated through the IMT iSolution software (IMT iSolution Inc., Northampton, NJ, USA) measuring the pixel intensity of the sphere area randomly in each plate.

Turning to “cetuximab: EGFR‐targeted therapy approved by the United States Food and Drug Administration in 2004 [reference compound]”, in data set [1], the “cytotoxic effect, treatment alone” value was “did not show cytotoxic effects”. For the same substance, the “spheroid formation, single treatment” value in data set [2] was “significantly induced spheroid formation”.

The values are drawn from publication PMC12579162, “Synthesized Depside Molecules Suppress the Progression of Colorectal Cancer by Binding VDAC1/PHB/MMP9 Being at the Crossroads of Stemness, Motility, Apoptosis, and Metabolism” (MedComm, 2025).
